Among the data in ChEMBL document CHEMBL1154626, “Novel, potent, and selective quinoxaline-based 5-HT(3) receptor ligands. 1. Further structure-activity relationships and pharmacological characterization” (J Med Chem, 2009) are pA2 values, retold here.

The chains behind the UniProt entries cited, without tags or fusion partners.
UniProt O70212, whole entry: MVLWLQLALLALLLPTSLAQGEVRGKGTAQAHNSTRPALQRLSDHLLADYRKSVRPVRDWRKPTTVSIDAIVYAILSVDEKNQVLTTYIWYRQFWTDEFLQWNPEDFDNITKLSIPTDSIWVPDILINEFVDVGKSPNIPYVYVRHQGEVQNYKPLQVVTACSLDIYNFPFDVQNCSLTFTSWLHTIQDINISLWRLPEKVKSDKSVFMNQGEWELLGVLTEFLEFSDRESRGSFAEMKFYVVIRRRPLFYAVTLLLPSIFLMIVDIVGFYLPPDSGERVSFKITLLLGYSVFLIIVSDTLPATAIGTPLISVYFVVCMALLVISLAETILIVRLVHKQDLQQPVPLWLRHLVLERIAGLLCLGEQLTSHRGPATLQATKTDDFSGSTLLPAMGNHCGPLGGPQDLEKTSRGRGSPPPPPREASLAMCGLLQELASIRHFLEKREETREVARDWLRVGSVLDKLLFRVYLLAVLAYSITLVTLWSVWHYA

The test has as its target 5-hydroxytryptamine receptor 3A (Cavia porcellus) (UniProt O70212). The following applies: Cardiac atrium.

Active and inactive are the calls of the source. The calls are words filed in the database; no cut-off is given here.

On to `c1ccc(CN2CCN(c3nc4ncccc4n4cccc34)CC2)cc1`, for which the pA2 entry is “inactive”.
